Measurements from patent US12385839B2, “Use of protein in predicting drug properties” (priority 2021, dated 2025).

By UniProt entry, the sequences of proteins in these tests, tags left out. Residues count along the entry.
UniProt P02768, 25-609: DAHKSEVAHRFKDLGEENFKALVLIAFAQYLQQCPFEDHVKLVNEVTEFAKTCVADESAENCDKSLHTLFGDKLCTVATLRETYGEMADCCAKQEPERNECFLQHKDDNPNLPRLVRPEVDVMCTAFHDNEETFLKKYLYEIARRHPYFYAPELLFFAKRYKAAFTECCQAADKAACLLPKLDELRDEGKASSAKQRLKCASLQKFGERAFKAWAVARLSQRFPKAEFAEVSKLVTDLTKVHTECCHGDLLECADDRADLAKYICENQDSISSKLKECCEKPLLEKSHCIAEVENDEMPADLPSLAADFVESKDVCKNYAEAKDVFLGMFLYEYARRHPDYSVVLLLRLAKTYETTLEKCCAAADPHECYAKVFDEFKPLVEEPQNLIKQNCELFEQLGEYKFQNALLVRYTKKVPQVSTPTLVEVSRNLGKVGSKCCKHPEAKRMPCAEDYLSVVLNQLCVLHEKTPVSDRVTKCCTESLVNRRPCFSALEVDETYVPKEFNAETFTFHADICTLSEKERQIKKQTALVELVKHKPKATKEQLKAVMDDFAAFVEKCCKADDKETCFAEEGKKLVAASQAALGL

Legend:
[1] = molecular target: human serum albumin (HSA) (Homo sapiens, UniProt P02768); test: Fluorescence emission spectrum (quenching) of HSA with carbamate pesticides; assay type: binding; details: modelling table
Protocol: the mixed solution to be tested was preheated at […] for 3 minutes, and the emission spectrum of HSA with carbamate pesticides was measured at 300-500 nm . The excitation wavelength was set at 280 nm , and the slit width for both excitation and emission was 15 nm; the HSA concentration was kept constant at 5×10^−7 M, and the pesticide concentration was (0-105)×10^−7 M.
The internal filtering effect of fluorescence signal was corrected according to the following formula: Fcor=Fobsexp[(Aex+Aem)/2] (1);
in this formula, Fcor and Fobs represent corrected fluorescence signal and observed fluorescence signal, respectively, and Aex and Aem represent absorbance of the mixed solution to be tested at excitation wavelength and emission wavelengths, respectively; the quenching constant, number of binding sites, binding constant, free energy and binding distance of different drugs were obtained by fluorescence emission spectra, and a BP neural network model was obtained. Specifically, they were obtained as follows:
There is a linear relationship between F0/F and [Q] to distinguish whether it is static quenching or dynamic quenching. The fluorescence quenching data are analyzed by Stern-Volmer equation to clarify the quenching mechanism: F0/F=1+KSV[Q]=1+Kqτ0[Q] (2);
in the formula, F0 and F are fluorescence signals […] quencher, respectively. […]

[2] = modelling table; cited from earlier work

In the case of `CNC(=O)O/N=C(\CS(C)(=O)=O)C(C)(C)C` [Thiofanox-sulfone, thiofanox sulfone], the Binding distance/r [1] is listed as 2.907 and 1.702 and the LD50 [2] is listed as 1.9 mg/kg and 3.8 mg/kg.

Values joined by “and” are separate entries in the source; they are usually repeats but may differ in a detail not shown here. Identical values can stand only once.
